Earlier results in patent US8986954B2, “DNA encoding function modifying Nav1.7 antibodies” (UCB Pharma S.A., priority 2009, dated 2015).

What was measured:
ADCC or CDC = conditions: mutated constant region (hinge CPPC to SPPS); cited from earlier work
[1] = in vivo; cited from earlier work
FcγR = conditions: hybrid IgG2/IgG4 constant region; cited from earlier work
[2] = 3 of 196 patients; cited from earlier work
complement = conditions: hybrid IgG2/IgG4 constant region; cited from earlier work

Substance	mediation of ADCC or CDC (ADCC or CDC)	immunogenicity incidence [1] [%]	FcγR binding (FcγR)	patients with anti-Eculizimumab antibodies detected (low titers) [2] [%]	complement activation (complement)
Abatacept: fusion of human CTLA-4 with IgG1 hinge-Fc	does not mediate ADCC or CDC	3	–	–	–
Eculizimumab: humanised anti-human C5 mAb for paroxysmal nocturnal hemoglobinuria comprising a hybrid constant region	–	–	does not bind FcγR	3	nor does it activate complement
